The text below walks through data of PubChem BioAssay (Tox21).

Protein sequences, listed by entry. Tags and fused reporters are not part of them.
UniProt P11473, whole entry: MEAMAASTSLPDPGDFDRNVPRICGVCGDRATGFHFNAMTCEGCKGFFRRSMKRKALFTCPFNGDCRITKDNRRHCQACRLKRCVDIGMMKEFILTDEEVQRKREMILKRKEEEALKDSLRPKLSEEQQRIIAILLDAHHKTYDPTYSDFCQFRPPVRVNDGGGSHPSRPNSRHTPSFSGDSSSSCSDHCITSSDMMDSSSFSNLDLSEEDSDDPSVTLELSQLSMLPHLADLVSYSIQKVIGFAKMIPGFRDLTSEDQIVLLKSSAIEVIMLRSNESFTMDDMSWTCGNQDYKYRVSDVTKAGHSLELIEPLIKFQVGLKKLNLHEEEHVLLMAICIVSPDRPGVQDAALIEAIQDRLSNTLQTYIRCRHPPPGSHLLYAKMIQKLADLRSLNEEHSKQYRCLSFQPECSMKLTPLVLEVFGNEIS

SMILES strings stand for the structures. “And” between values parts separate entries of the source, which are not always exact repeats. Equal entries are not always repeated. The entries are a selection whose mix differs from that of the whole data set. Inconclusive results are not listed. The source made the active and inactive calls. Calls come from the whole dose curve.
% is set by controls: 0 for no effect and ±100 for the full control effect.

One assay deals with Vitamin D3 receptor (Homo sapiens) (UniProt P11473). As to the kind of experiment: qHTS assay to identify small molecule agonists of the vitamin D receptor (VDR) signaling pathway (AID 743222). The note with it: HEK293T VDR-UAS-bla, beta-lactamase FRET ratio, 16 h; at 63.5 µM (top of the series). The source says: National Center for Advancing Translational Sciences [NCATS]
NIH Chemical Genomics Center [NCGC]
U.S. Environmental Protection Agency [EPA]
National Institutes of Environmental Health Sciences [NIEHS]
National Toxicology Program [NTP]
U.S. Food and Drug Administration [FDA]
The vitamin D receptor (VDR), a member of nuclear hormone receptor superfamily, plays a critical role in calcium homeostasis and bone metabolism. It is also involved in cell differentiation and growth, and thrombogenicity.
Tox21 Assay Protocol Summary:
VDR-bla cells were dispensed at 2,000 cells/6 uL/well into black wall/clear-bottom 1536-well plates using a Multidrop Combi (Thermo Fisher Scientific, Waltham, MA) dispenser. After the assay plates were incubated at a 37C and 5% CO2 for 4 h, 23 nL of compounds dissolved in DMSO, positive controls or DMSO only was transferred to the assay plate by a Pintool station (Kalypsys, San Diego, CA). The plates were incubated at 37C and 5% CO2 for 16 h. After 1 uL of LiveBLAzerTM B/G FRET substrate was added using a Bioraptr Flying Reagent Dispenser (FRD) workstation (Beckman Coulter, Indianapolis, IN, USA), the plates were incubated at room temperature for 2 h, and fluorescence intensity was measured by an Envision plate reader (PerkinElmer, Shelton, CT).
In general terms: qHTS replaces the single test concentration by a dilution series.
Turning to `OCCSCCO`, the activation was inactive: -2.4%.

Consider `C/C1=C2N=C(/C=C3N=C(/C(C)=C4\[N-][C@@](C)([C@@H]5N=C1[C@](C)(CCC(=O)NC[C@@H](C)OP(=O)([O-])O[C@H]1[C@@H](O)[C@@H](n6cnc7cc(C)c(C)cc76)O[C@@H]1CO)[C@H]5CC(N)=O)[C@@](C)(CC(N)=O)[C@@H]4CCC(N)=O)[C@@](C)(CC(N)=O)[C@@H]\3CCC(N)=O)C(C)(C)[C@@H]/2CCC(N)=O.[C-]#N.[Co+3]`, for which the activation was inactive: 7.18%.

For the compound `CP(=O)(O)OCCC[Si](O)(O)O`, the activation was inactive: 10.1%.

On to `Cc1ccc([N+](=O)[O-])c([N+](=O)[O-])c1`, for which the activation was inactive: -7.83%.

In the case of `CCOP(=O)(CC)OCC`, the activation was inactive: -2.31%.

On to `COP(C)(=O)OC`, for which the activation was inactive: 0.369%.

As to `Cc1c([N+](=O)[O-])cccc1[N+](=O)[O-]`, the activation was inactive: -1.44% and inactive: -0.522%.

With `O=[N+]([O-])OCC(CO[N+](=O)[O-])(CO[N+](=O)[O-])CO[N+](=O)[O-]`, the activation was inactive: 1.97%.

Regarding `Cc1ccc([N+](=O)[O-])cc1[N+](=O)[O-]`, the activation was inactive: 1.15% and inactive: 5.07%.

With `CCOP(=O)(CC)Oc1ccc([N+](=O)[O-])cc1` (configuration not stated), the activation was inactive: 14.1%.

Consider `COc1ccc([N+](=O)[O-])cc1[N+](=O)[O-]`, for which the activation is inactive: 0.351%.

The same assay, now with this note: HEK293T VDR-UAS-bla, beta-lactamase FRET ratio, 16 h; at 81.1 µM (top of the series).
As to `OCCSCCO`, the activation is inactive: -2.04%.

For `Cc1ccc([N+](=O)[O-])c([N+](=O)[O-])c1`, the activation is inactive: 2.76%.

As for `COP(C)(=O)OC`, the activation is inactive: -1.53%.

As for `CCN(CC)CCCl`, the activation was inactive: -1.78%.

For the compound `Nc1cc([N+](=O)[O-])cc([N+](=O)[O-])c1O`, the activation was inactive: -0.118%.

Turning to `N=C(N)N[N+](=O)[O-]`, the activation is inactive: -1.61%.
